Tests used:
D(2) dopamine receptor = D(2) dopamine receptor (Homo sapiens, UniProt P14416)
[1] = target: Alpha-2B adrenergic receptor (Homo sapiens, UniProt P18089)
[2] = target: Alpha-1D adrenergic receptor (Homo sapiens, UniProt P25100)
D(4) dopamine receptor = D(4) dopamine receptor (Homo sapiens, UniProt P21917)

Sequences of proteins named here, by UniProt entry; tags and fusion partners are left off.
UniProt P14416, whole entry: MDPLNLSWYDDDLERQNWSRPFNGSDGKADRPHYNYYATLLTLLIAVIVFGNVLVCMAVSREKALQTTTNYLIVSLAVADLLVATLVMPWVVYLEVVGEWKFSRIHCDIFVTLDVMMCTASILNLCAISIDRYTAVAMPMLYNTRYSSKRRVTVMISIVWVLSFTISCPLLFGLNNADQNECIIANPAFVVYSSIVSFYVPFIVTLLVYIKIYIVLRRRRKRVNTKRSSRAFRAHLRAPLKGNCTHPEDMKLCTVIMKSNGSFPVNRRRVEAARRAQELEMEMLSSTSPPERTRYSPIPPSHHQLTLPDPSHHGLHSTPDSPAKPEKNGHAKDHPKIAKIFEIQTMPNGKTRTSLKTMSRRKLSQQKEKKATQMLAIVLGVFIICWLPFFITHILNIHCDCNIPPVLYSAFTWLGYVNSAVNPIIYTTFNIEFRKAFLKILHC
UniProt P18089, whole entry: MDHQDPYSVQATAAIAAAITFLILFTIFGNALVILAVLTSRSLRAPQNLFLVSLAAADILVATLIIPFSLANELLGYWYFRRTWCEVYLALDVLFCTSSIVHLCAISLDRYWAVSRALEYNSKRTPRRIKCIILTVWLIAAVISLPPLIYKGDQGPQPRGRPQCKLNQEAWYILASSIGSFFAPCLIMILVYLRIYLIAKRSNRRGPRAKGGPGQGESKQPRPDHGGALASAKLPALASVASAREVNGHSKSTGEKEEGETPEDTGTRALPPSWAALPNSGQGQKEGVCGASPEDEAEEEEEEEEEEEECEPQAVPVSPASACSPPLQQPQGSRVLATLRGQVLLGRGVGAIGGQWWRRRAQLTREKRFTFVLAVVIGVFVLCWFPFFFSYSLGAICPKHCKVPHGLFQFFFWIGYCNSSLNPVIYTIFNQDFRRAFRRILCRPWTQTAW
UniProt P25100, whole entry: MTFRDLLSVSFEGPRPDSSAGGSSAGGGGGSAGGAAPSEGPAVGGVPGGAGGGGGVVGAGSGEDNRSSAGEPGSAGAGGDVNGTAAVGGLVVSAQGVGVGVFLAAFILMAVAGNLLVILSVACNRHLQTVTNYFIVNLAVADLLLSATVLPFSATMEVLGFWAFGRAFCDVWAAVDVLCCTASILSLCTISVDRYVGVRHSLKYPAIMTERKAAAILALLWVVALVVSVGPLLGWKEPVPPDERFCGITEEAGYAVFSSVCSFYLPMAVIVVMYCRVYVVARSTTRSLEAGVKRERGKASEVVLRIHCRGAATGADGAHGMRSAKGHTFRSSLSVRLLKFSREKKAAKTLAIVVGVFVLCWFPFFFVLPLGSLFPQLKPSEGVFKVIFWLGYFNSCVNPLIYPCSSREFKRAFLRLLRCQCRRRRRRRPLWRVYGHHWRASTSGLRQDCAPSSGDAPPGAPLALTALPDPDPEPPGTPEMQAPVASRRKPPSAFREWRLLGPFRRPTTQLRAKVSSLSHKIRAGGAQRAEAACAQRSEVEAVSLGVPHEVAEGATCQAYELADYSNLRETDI
UniProt P21917, whole entry: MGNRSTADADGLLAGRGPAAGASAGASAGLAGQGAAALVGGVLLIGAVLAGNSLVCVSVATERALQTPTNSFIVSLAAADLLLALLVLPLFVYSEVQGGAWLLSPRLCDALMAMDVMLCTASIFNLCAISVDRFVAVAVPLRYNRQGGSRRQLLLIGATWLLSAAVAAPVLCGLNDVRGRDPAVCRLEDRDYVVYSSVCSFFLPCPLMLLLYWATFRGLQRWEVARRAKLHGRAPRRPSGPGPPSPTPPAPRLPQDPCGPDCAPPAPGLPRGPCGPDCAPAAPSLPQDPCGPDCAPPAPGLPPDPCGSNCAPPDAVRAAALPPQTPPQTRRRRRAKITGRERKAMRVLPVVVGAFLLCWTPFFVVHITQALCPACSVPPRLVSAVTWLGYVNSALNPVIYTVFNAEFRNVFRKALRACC

Row | Structure (SMILES) | Ki [1] | also measured
1 | Oc1ccc2[nH]cc(CCCCN3CC=C(c4ccccc4)CC3)c2c1 | 4.57 nM | Ki (D(2) dopamine receptor): 4.37 nM
2 | CCN(CC)C(=O)N[C@H]1C[C@@H]2c3cccc4[nH]cc(c34)C[C@H]2N(C)C1 | 0.45 nM | –
3 | CCCN(CCC)CCc1cccc2c1CC(=O)N2 | 759 nM | –
4 | CN1CCc2cccc3c2[C@H]1Cc1ccc(O)c(O)c1-3 [APOKYN] | 66.1 nM | Ki [2]: 64.6 nM
5 | c1cnc(N2CCN(Cc3ccc4c(c3)OCO4)CC2)nc1 [NSC_4850] | – | Ki (D(4) dopamine receptor): 302 nM
6 | CCCN1CCC[C@@H]2Cc3n[nH]cc3C[C@H]21 [NSC_54562] | 2510 nM | –
7 | CCCNC1CCc2nc(N)sc2C1 (centres undefined) [Pramipexole] | 631 nM | –
